The target in this test is Cannabinoid receptor 1 (Rattus norvegicus, UniProt P20272). Kind of test: Tested for binding affinity to Cannabinoid receptor 1.

Sequences of proteins named here, by UniProt entry; tags and fusion partners are left off.
UniProt P20272, whole entry: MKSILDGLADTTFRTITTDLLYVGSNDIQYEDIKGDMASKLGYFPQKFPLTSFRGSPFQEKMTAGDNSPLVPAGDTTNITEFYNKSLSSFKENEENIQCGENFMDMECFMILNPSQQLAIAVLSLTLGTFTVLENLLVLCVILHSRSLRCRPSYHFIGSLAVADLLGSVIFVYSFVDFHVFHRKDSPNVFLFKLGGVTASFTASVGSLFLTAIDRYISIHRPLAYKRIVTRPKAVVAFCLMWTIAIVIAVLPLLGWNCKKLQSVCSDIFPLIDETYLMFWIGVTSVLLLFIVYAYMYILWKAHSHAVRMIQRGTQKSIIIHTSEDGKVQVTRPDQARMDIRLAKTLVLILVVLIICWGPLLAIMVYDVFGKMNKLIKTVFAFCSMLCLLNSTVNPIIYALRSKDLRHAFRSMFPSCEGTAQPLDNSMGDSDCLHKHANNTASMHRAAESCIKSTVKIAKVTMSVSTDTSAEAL

The molecule `CCCCC/C=C\C/C=C\C/C=C\C/C=C\CCCC(=O)N[C@@H](C)CO` yielded an inhibition constant Ki of 173 nM.
Regarding `CCCCC/C=C\C/C=C\CCCCCCCC(=O)NCCO` [LINOLEOYLETHANOLAMIDE], the Ki is greater than 10000 nM.

Values taken from ChEMBL document CHEMBL1132600, “Substrate specificity and stereoselectivity of rat brain microsomal anandamide amidohydrolase” (J Med Chem, 1999).
